Experimental data taken from patent publication US20160193231A1, “RETT SYNDROME AND TREATMENTS THEREFORE” (RETT SYNDROME RESEARCH TRUST, priority 2013, published 2016).
Only a part of the results on these compounds is given; other tests are left out.

Columns and labels:
[1] = test system: 129.Mecp2^tm1.1Bird/Y mice; experiment: Accelerating rotarod task, Mecp2 null males; format: in vivo, mouse; details: Example 6/FIG. 10; 5 mg/kg IP 2x weekly
[2] = test system: 129.Mecp2^tm1.1Bird/Y mice; experiment: Open field locomotor activity, Mecp2 null males; format: in vivo, mouse; details: Example 6/FIG. 10; 5 mg/kg IP 2x weekly

## COc1ccc([N+](=O)[O-])cc1[N+](=O)[O-]
[1]
  performance in the rotarod assay: significantly improved performance
[2]
  performance in the OFA assay: significantly improved performance
